Values quoted from earlier work as cited in publication PMC9027176 (Viruses, 2022).

Columns and labels:
FPV039 = molecular target: FPV039; parameters: method as in ref 49 = [49]; details: Isothermal Titration Calorimetry; read-out: Affinity (nM), FPV039; cited from earlier work
Mcl-1 = test system: Mcl-1; parameters: method as in ref 46 = [46]; details: affinity measured by SPR; cited from earlier work
M11 = details: read-out: Affinity (nM), M11; Isothermal Titration Calorimetry; cited from earlier work

For CSCC[C@H](NC(=O)[C@H](CCCNC(=N)N)NC(=O)[C@H](CCCNC(=N)N)NC(=O)[C@H](CC(C)C)NC(=O)[C@H](CCC(=O)O)NC(=O)[C@H](CCCNC(=N)N)NC(=O)CNC(=O)[C@H](Cc1ccc(O)cc1)NC(=O)[C@H](CCCNC(=N)N)NC(=O)[C@H](CCC(N)=O)NC(=O)[C@H](C)NC(=O)[C@H](C)NC(=O)[C@H](Cc1c[nH]c2ccccc12)NC(=O)[C@H](CC(C)C)NC(=O)[C@@H](N)CC(N)=O)C(=O)N[C@@H](CO)C(=O)N[C@@H](CC(=O)O)C(=O)N[C@@H](CCC(=O)O)C(=O)N[C@@H](Cc1ccccc1)C(=O)N[C@H](C(=O)N[C@@H](CC(=O)O)C(=O)N[C@@H](CO)C(=O)N[C@@H](Cc1ccccc1)C(=O)N[C@@H](CCCCN)C(=O)N[C@@H](CCCCN)C(=O)NCC(=O)O)C(C)C [Bad], the Kd (FPV039) is given as 653 nM and the “Affinity (nM), Mcl-1” value (Mcl-1) is given as >100,000 nM.

For CC[C@H](C)[C@H](NC(=O)[C@H](CS)NC(=O)[C@H](CCC(N)=O)NC(=O)[C@H](CC(C)C)NC(=O)[C@H](CCCCN)NC(=O)[C@H](CCCNC(=N)N)NC(=O)[C@H](C)NC(=O)[C@@H](NC(=O)[C@H](CCC(N)=O)NC(=O)[C@@H](NC(=O)[C@H](CCC(=O)O)NC(=O)[C@H](C)NC(=O)[C@H](CCC(N)=O)NC(=O)[C@H](Cc1c[nH]cn1)NC(=O)[C@@H](N)CCC(N)=O)C(C)C)[C@@H](C)CC)C(=O)N[C@@H](C)C(=O)N[C@@H](CC(=O)O)C(=O)N[C@@H](CCC(N)=O)C(=O)N[C@@H](Cc1ccccc1)C(=O)N[C@@H](Cc1c[nH]cn1)C(=O)N[C@@H](CCCNC(=N)N)C(=O)N[C@@H](CC(C)C)C(=O)N[C@@H](Cc1c[nH]cn1)C(=O)N[C@H](C(=O)N[C@@H](CCC(N)=O)C(=O)N[C@@H](CCC(N)=O)C(=O)O)C(C)C [Bmf], the Kd (M11) is listed as 300 nM, the Kd (FPV039) is listed as 254 nM and the “Affinity (nM), Mcl-1” value (Mcl-1) is listed as 1100 nM.
